Results from patent publication US20070134261A1, “Effectors of innate immunity” (priority 2001, published 2007).

Tests used:
[1] = test system: human A549 epithelial cells; assay: Resgen Human cDNA arrays (PRHU03-S3) of A549 cells treated with peptide (Tables 21-26)
[2] = test system: RAW 264.7 cells; assay: Atlas polynucleotide arrays of RAW 264.7 cells stimulated with LPS, LTA or CpG DNA (Tables 57, 58); settings: S. typhimurium LPS 100 ng/ml, S. aureus LTA 1 μg/ml, CpG 1 μM; 4 h

CC[C@H](C)[C@H](N)C(=O)N[C@@H](CC(C)C)C(=O)N1CCC[C@H]1C(=O)N[C@@H](Cc1c[nH]c2ccccc12)C(=O)N[C@@H](CCCCN)C(=O)N[C@@H](Cc1c[nH]c2ccccc12)C(=O)N1CCC[C@H]1C(=O)N[C@@H](Cc1c[nH]c2ccccc12)C(=O)N[C@@H](Cc1c[nH]c2ccccc12)C(=O)N1CCC[C@H]1C(=O)N[C@@H](Cc1c[nH]c2ccccc12)C(=O)N[C@@H](CCCNC(=N)N)C(=O)N[C@@H](CCCNC(=N)N)C(N)=O [SEQ ID NO: 2]
Ratio Peptide:Unstimulated, cadherin, EGF LAG seven-pass. G-type receptor 2, flamingo (Drosophila) homolog [1]: 0.42

5′-TCATGACGTTCCTGACGTT-3′ (chemistry not given here) [CpG]
Ratio to Contrl, CACCC Box-binding protein BKLF (U36340) [2]: 7 | Ratio to Contrl, CD7 (D10329) [2]: 2 | Ratio to Contrl, CD40L receptor (M83312) [2]: 57 | Ratio to Contrl, CRE-BPI (S76657) [2]: 7 | Ratio to Contrl, Cyclin A1 (X84311) [2]: 2 | Ratio to Contrl, Cyclin G2 (U95826) [2]: 2 | Ratio to Contrl, Elk-1 (X87257) [2]: 1 | Ratio to Contrl, Fas 1 receptor (M83649) [2]: 42 | Ratio to Contrl, H-ras proto-oncopolynucleotide (Z50013) [2]: 5 | Ratio to Contrl, ICAM-1 (X52264) [2]: 9 | Ratio to Contrl, Jun-B (J03236) [2]: 14 | Ratio to Contrl, Jun-D (J05205) [2]: 20 | Ratio to Contrl, Leukemia inhibitory factor (LIF) (X06381) [2]: 102 | Ratio to Contrl, Mad related protein (U60530) [2]: 3 | Ratio to Contrl, Nur77 (J04113) [2]: 3 | Ratio to Contrl, Pim-1 (M13945) [2]: 2 | Ratio to Contrl, Protease nexin 1 (PN-1) (X70296) [2]: 22 | Ratio to Contrl, hepatocyte growth factor (X72307) [2]: 1.0 | Ratio to Contrl, hepatoma transmembrane kinase ligand (L38847) [2]: 1.0 | Ratio to Contrl, interferon inducible protein 1 (U19119) [2]: 4 | Ratio to Contrl, thrombopoietin (L34169) [2]: 0.5 | Ratio to Control, B-myb (X70472) [2]: 0.5 | Ratio to Control, CD14 (M34510) [2]: 1.4 | Ratio to Control, CD18 (X14951) [2]: 2 | Ratio to Control, DNA polymerase (Z21848) [2]: 0.6 | Ratio to Control, I-κB (alpha subunit) (U36277) [2]: 2.7 | Ratio to Control, ICE (L28095) [2]: 50 | Ratio to Control, IL-1β (M15131) [2]: 55 | Ratio to Control, IL-15 (U14332) [2]: 12 | Ratio to Control, MAPKAP-2 (X76850) [2]: 2.5 | Ratio to Control, MIP-1α (X12531) [2]: 26 | Ratio to Control, MIP-1β (M35590) [2]: 58 | Ratio to Control, MIP-2α (X53798) [2]: 78 | Ratio to Control, NF-2 (X60671) [2]: 2.8 | Ratio to Control, NF-κB (M57999) [2]: 3.4 | Ratio to Control, Stat 1 (U06924) [2]: 3.2 | Ratio to Control, TGFβ (X57413) [2]: 28 | Ratio to Control, TNFR1 (M59378) [2]: 11 | Ratio to Control, TRAIL (U37522) [2]: 6 | Ratio to Control, c-Fms (X68932) [2]: 0.5 | Ratio to Control, c-rel proto-oncopolynucleotide (X15842) [2]: 15 | Ratio to Control, iNOS (M87039) [2]: 45 | Ratio to Control, tristetraprolin (M57422) [2]: 90 | Ratio to Control, vimentin (X51438) [2]: 2.0
